Data from US20070014790A1 (JAPAN SCIENCE AND TECHOLOGY AGENCY, published 2007).

How the values were obtained:
[1] = biological target: T1, in vitro-translated, 35S-labelled full-length human ZHX1 (human, UniProt Q9UKY1 1-873, limits assumed, 35S-labelled); assay: GST pull-down, SDS/PAGE and autoradiography
T1 sequence (looked up): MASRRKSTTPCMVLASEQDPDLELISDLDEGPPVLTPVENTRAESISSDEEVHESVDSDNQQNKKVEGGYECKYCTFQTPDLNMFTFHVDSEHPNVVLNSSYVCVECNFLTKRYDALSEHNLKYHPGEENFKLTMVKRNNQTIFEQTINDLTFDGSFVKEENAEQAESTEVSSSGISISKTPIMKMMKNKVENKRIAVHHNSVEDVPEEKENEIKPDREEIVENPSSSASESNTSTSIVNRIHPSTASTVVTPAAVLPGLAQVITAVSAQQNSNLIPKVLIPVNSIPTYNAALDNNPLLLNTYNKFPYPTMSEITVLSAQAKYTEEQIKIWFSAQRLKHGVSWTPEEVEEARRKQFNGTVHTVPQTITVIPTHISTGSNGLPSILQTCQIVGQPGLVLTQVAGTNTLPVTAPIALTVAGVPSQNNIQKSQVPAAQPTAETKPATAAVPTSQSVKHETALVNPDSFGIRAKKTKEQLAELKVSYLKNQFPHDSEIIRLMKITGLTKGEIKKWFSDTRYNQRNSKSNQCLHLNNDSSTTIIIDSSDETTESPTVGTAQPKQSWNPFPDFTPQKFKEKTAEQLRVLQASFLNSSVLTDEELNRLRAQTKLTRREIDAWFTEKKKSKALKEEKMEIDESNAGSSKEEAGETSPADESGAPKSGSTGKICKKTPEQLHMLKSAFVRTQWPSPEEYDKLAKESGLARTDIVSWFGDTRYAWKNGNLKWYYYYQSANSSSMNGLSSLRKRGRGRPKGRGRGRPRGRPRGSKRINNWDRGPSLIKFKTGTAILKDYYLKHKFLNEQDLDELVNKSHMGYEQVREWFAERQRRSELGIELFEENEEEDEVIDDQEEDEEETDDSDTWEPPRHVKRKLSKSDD
Text: (§1) The beads were washed thoroughly and the bound protein was eluted and analysed by SDS/PAGE (10% gel). Interaction signals were detected by an autoradiography. Lanes 2, 4 and 7, 10% of the protein added to the reactions shown in the other lanes were loaded.
(§2) The preparation of the GST fusion protein, ³⁵S-labelling of in vitro-translated ZHX1 and pull-down analysis have been described previously (Yamada, K., Printz, R. L., Osawa, H., and Granner, D. K. (1999) Biochem. Biophys. Res. Commun. 261, 614-621; Hirano, S., Yamada, K., Kawata, H., Shou, Z., Mizutani, T., Yazawa, T., Kajitani, T., Sekiguchi, T., Yoshino, M., Shigematsu, Y, Mayumi, M., and Miyamoto, K. (2002) Gene 290, 107-114). […] Finally, the beads were resuspended in an equal volume of 2×SDS sample buffer and each supernatant was loaded on to an SDS/PAGE gel (10%), along with a prestained molecular-mass marker. The gel was dried and exposed to a FUJIX imaging plate (Kanagawa, Japan). Interaction signals were detected using the FUJIX BAS-2000 image analysing system. The relative purity and amounts of each fusion protein were determined by gel-staining with Coomassie Brilliant Blue R-250.
(§3) The inventors also carried out in vitro GST pull-down assays (reference example 6) to verify the specific interaction between ZHX1 and ZHX3.

[2] = biological target: T2, in vitro-translated, 35S-labelled full-length human ZHX3 (human, UniProt Q9H4I2 1-956, 35S-labelled); assay: GST pull-down, SDS/PAGE and autoradiography
T2 sequence: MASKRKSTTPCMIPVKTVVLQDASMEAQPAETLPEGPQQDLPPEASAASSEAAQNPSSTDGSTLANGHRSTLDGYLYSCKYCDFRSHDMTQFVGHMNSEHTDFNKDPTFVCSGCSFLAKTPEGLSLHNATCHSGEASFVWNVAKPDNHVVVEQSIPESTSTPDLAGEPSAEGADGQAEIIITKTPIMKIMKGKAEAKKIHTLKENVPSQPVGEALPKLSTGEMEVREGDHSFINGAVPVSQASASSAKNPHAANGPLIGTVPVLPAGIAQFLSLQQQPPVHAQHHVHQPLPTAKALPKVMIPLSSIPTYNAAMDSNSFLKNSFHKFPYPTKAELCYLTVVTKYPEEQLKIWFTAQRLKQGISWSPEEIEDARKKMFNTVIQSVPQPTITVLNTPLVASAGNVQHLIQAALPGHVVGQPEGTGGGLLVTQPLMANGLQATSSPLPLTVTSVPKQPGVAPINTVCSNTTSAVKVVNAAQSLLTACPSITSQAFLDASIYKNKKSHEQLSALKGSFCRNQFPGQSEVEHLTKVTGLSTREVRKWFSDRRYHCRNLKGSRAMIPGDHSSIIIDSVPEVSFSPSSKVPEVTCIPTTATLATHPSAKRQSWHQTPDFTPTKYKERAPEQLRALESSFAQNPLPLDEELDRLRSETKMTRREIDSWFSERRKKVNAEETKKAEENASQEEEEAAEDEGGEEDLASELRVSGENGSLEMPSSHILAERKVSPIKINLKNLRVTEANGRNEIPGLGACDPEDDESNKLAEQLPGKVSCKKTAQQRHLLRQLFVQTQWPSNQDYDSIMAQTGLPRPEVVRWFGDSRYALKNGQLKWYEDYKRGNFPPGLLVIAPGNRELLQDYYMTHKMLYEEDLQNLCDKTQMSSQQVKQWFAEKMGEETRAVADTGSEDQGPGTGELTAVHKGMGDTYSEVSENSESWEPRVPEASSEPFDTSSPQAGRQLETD
Text: as §1, §2, §3

B1: GST alone (pGEX-5X-1) (other, UniProt P08515 1-218, looked up)
chain: MSPILGYWKIKGLVQPTRLLLEYLEEKYEEHLYERDEGDKWRNKKFELGLEFPNLPYYIDGDVKLTQSMAIIRYIADKHNMLGGCPKERAEISMLEGAVLDIRYGVSRIAYSKDFETLKVDFLSKLPEMLKMFEDRLCHKTYLNGDHVTHPDFMLYDALDVVLYMDPMCLDAFPKLVCFKKRIEAIPQIDKYLKSSKYIAWPLQGWQATFGGGDHPPK
notes: Control, expressed in E. coli and immobilized on glutathione-Sepharose beads
Question: Does B1 bind [1]?
Answer: Result: no binding

Question: Does B1 bind [2]?
Answer: Result: no binding
